How the values were obtained:
delta-opioid receptor = delta-opioid receptor (Rattus norvegicus, UniProt P33533); test: Rat Brain Delta-Opioid Receptor Binding Assay; parameters: species or system rat (Wistar); conditions: read-out: Delta K; rat forebrain homogenate, [3H]DPDPE, 25° C., pH 7.4
[1] = Mouse Acetylcholine Bromide-induced Abdominal Constriction Assay; conditions: dose about 30 μmole/Kg p.o.; 30 min before 5.5 mg/kg i.p. acetylcholine bromide; 10 min observation
Experimental: Mouse Acetylcholine Bromide-induced Abdominal Constriction Assay
The mouse acetylcholine-induced abdominal constriction assay, as described by Collier et al. in Brit. J. Pharmacol. Chem. Ther., 32: 295-310, 1968 with minor modifications, was used to assess analgesic potency of the compounds of Formula (I). The test drugs or appropriate vehicles were administered orally (p.o.) and 30 min later the animal received an intraperitoneal (i.p.) injection of 5.5 mg/kg acetylcholine bromide (Matheson, Coleman and Bell, East Rutherford, N.J.). The mice were then placed in groups of three into glass bell jars and observed for a ten min observation period for the occurrence of an abdominal constriction response (defined as a wave of constriction and elongation passing caudally along the abdominal wall, accompanied by a twisting of the trunk and followed by extension of the hind limbs).
As shown in Table 2 for the compounds of the present invention, the percent inhibition of this response to a nociceptive stimulus (equated to % analgesia) was calculated as follows: [formula]

Amino acid sequences for entries named in this document (tags omitted).
UniProt P33533, whole entry: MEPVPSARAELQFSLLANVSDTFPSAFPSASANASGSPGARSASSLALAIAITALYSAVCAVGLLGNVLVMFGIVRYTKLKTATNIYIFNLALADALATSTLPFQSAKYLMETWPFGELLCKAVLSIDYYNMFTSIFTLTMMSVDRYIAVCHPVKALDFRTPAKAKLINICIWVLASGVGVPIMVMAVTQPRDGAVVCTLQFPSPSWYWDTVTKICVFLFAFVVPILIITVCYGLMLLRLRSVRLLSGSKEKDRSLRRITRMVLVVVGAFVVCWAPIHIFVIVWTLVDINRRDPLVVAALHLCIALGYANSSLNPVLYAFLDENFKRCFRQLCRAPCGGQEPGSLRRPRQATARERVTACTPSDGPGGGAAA

## CCN(CC)C(=O)c1ccc(N(c2ccccc2)[C@H]2C[C@H]3CC[C@@H](C2)N3)cc1
delta-opioid receptor
  Ki: 0.36 nM

## CCN(CC)C(=O)c1ccc(N(c2ccccc2)[C@H]2C[C@H]3CC[C@@H](C2)N3CCc2ccccc2)cc1
delta-opioid receptor
  Ki: 8 nM

## CCCN1[C@@H]2CC[C@H]1C[C@@H](N(c1ccccc1)c1ccc(C(=O)N(CC)CC)cc1)C2
delta-opioid receptor
  Ki: 3 nM
[1]
  percent inhibition of abdominal constriction response (% analgesia): 60%

## CCN(CC)C(=O)c1ccc(N(c2cccc(OC)c2)[C@H]2C[C@H]3CC[C@@H](C2)N3C)cc1
delta-opioid receptor
  Ki: 20.6 nM

## CCN(CC)C(=O)c1ccc(N(c2ccccc2)[C@H]2C[C@H]3CC[C@@H](C2)N3C)cc1
delta-opioid receptor
  Ki: 6.59 nM

## CCCN(CCC)C(=O)c1ccc(N(c2ccccc2)[C@@H]2C[C@H]3CC[C@@H](C2)N3C)cc1
delta-opioid receptor
  Ki: 131 nM
